Experimental data from PubChem BioAssay (NCI).
The list shows a part of the results, in another mix than the full data.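 Interpretation: 100, growth as untreated; towards 0, rising growth inhibition; 0, no net growth; 0 to -100, cell death. Compounds scoring below 10 were considered active.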 Calls of active or inactive are those of the source.

How the values were obtained:
Assay in all cases: NCI-60 one-dose screen, 48 h (100 = growth as untreated, 0 = no growth, -100 = all killed)
Conditions in all cases: 10 µM unless noted
NCI-H23 lung = test system: NCI-H23 lung
NCI-H226 lung = test system: NCI-H226 lung
NCI-H322M lung = test system: NCI-H322M lung
HOP-62 NSCLC = test system: HOP-62 NSCLC
NCI-H460 lung = test system: NCI-H460 lung
NCI-H522 lung = test system: NCI-H522 lung
A549/ATCC NSCLC = test system: A549/ATCC NSCLC
786-0 renal = test system: 786-0 renal
COLO 205 colon = test system: COLO 205 colon
DU-145 prostate = test system: DU-145 prostate
K-562 leukemia = test system: K-562 leukemia
MALME-3M melanoma = test system: MALME-3M melanoma
MDA-MB-231 breast = test system: MDA-MB-231 breast
RXF 393 renal = test system: RXF 393 renal
SF-268 CNS = test system: SF-268 CNS
SF-295 CNS = test system: SF-295 CNS
SF-539 CNS = test system: SF-539 CNS
UACC-257 melanoma = test system: UACC-257 melanoma
M14 melanoma = test system: M14 melanoma
HOP-92 NSCLC = test system: HOP-92 NSCLC

Measured: growth

ClCCN1c2ccccc2Oc2ccccc21
inactive: NCI-H23 lung 95.4% | NCI-H226 lung 101% | NCI-H322M lung 100% | HOP-62 NSCLC 100% | NCI-H460 lung 112% | NCI-H522 lung 99% | A549/ATCC NSCLC 101% | 786-0 renal 101% | COLO 205 colon 117% | DU-145 prostate 109% | K-562 leukemia 99.5% | MALME-3M melanoma 99.6% | MDA-MB-231 breast 112% | RXF 393 renal 103% | SF-268 CNS 101% | SF-295 CNS 91.6% | SF-539 CNS 102% | UACC-257 melanoma 103% | M14 melanoma 101%

COP(=O)(OC)N(CCCl)CCCl
inactive: NCI-H23 lung 108% | NCI-H226 lung 93% | NCI-H322M lung 98.7% | HOP-62 NSCLC 102% | NCI-H460 lung 102% | NCI-H522 lung 103% | A549/ATCC NSCLC 95.4% | 786-0 renal 104% | COLO 205 colon 115% | DU-145 prostate 113% | K-562 leukemia 46.2% | MALME-3M melanoma 98.5% | MDA-MB-231 breast 107% | RXF 393 renal 98.5% | SF-268 CNS 112% | SF-295 CNS 98% | SF-539 CNS 100% | UACC-257 melanoma 99.8% | M14 melanoma 118%

O=[As](O)(O)c1cccnc1
inactive: NCI-H23 lung 123% | NCI-H226 lung 105% | NCI-H322M lung 113% | HOP-62 NSCLC 103% | NCI-H460 lung 103% | NCI-H522 lung 107% | A549/ATCC NSCLC 103% | 786-0 renal 112% | COLO 205 colon 131% | DU-145 prostate 121% | K-562 leukemia 111% | MALME-3M melanoma 131% | MDA-MB-231 breast 118% | SF-268 CNS 109% | SF-295 CNS 102% | SF-539 CNS 94.1% | UACC-257 melanoma 112% | M14 melanoma 107%

O=[N+]([O-])c1ccc(CCCCCCc2ccc([N+](=O)[O-])cc2[N+](=O)[O-])c([N+](=O)[O-])c1
inactive: NCI-H23 lung 90.6% | NCI-H226 lung 83.3% | NCI-H322M lung 96.1% | HOP-62 NSCLC 116% | NCI-H460 lung 84.2% | NCI-H522 lung 109% | A549/ATCC NSCLC 86.7% | COLO 205 colon 104% | DU-145 prostate 91.7% | K-562 leukemia 72.8% | MALME-3M melanoma 92.7% | MDA-MB-231 breast 87.5% | RXF 393 renal 104% | SF-268 CNS 86.6% | SF-295 CNS 103% | SF-539 CNS 104% | UACC-257 melanoma 92.3% | M14 melanoma 90.3%

ClCCNCc1cccc(Cl)c1
inactive: NCI-H23 lung 102% | NCI-H226 lung 93.1% | NCI-H322M lung 108% | HOP-62 NSCLC 96% | HOP-92 NSCLC 88.3% | NCI-H522 lung 114% | A549/ATCC NSCLC 90.4% | 786-0 renal 97.3% | COLO 205 colon 105% | DU-145 prostate 111% | K-562 leukemia 90% | MALME-3M melanoma 102% | RXF 393 renal 107% | SF-268 CNS 115% | SF-295 CNS 92.5% | SF-539 CNS 109% | UACC-257 melanoma 90.8% | M14 melanoma 96%

COC(=O)C1(C)COP(=O)(N2CCCC2)OC1 (stereo unspecified)
inactive: NCI-H23 lung 98.6% | NCI-H322M lung 92.4% | HOP-62 NSCLC 106% | NCI-H460 lung 107% | HOP-92 NSCLC 107% | NCI-H522 lung 93.3% | A549/ATCC NSCLC 108% | 786-0 renal 99.4% | COLO 205 colon 108% | DU-145 prostate 111% | K-562 leukemia 94.3% | MALME-3M melanoma 100% | MDA-MB-231 breast 115% | RXF 393 renal 118% | SF-268 CNS 97.5% | SF-295 CNS 111% | SF-539 CNS 107% | UACC-257 melanoma 100% | M14 melanoma 99.1%

CN(CCCl)CCC(=O)c1ccccc1
inactive: NCI-H23 lung 98.9% | NCI-H226 lung 99.3% | HOP-62 NSCLC 101% | NCI-H460 lung 98.2% | HOP-92 NSCLC 111% | NCI-H522 lung 87.5% | A549/ATCC NSCLC 101% | 786-0 renal 98.2% | COLO 205 colon 113% | DU-145 prostate 97.4% | K-562 leukemia 82.3% | MALME-3M melanoma 103% | MDA-MB-231 breast 110% | RXF 393 renal 101% | SF-268 CNS 90.3% | SF-295 CNS 99% | SF-539 CNS 102% | UACC-257 melanoma 102% | M14 melanoma 89%

Nc1ccc(N(CCCl)CCCl)cc1
inactive: NCI-H23 lung 59.8% | NCI-H226 lung 70.8% | NCI-H322M lung 106% | HOP-62 NSCLC 65.4% | NCI-H460 lung 17.7% | A549/ATCC NSCLC 54.4% | 786-0 renal 48% | COLO 205 colon 74.7% | DU-145 prostate 68% | K-562 leukemia 70.7% | MALME-3M melanoma 73.9% | MDA-MB-231 breast 87.4% | RXF 393 renal 75.2% | SF-268 CNS 53.5% | SF-295 CNS 19.8% | SF-539 CNS 37.5% | UACC-257 melanoma 73.4% | M14 melanoma 67.1%

COC(=O)C1(C)COP(=O)(NCc2ccccc2)OC1 (stereo unspecified)
inactive: NCI-H23 lung 96.4% | NCI-H226 lung 113% | NCI-H322M lung 111% | NCI-H460 lung 110% | NCI-H522 lung 108% | A549/ATCC NSCLC 101% | 786-0 renal 103% | COLO 205 colon 118% | DU-145 prostate 115% | K-562 leukemia 90.1% | MALME-3M melanoma 104% | MDA-MB-231 breast 111% | RXF 393 renal 121% | SF-268 CNS 102% | SF-295 CNS 106% | SF-539 CNS 108% | UACC-257 melanoma 99.5% | M14 melanoma 94.5%
